From PubChem BioAssay AID2805 (Sanford-Burnham Center for Chemical Genomics, 2010)
The entries are a selection whose mix differs from that of the whole data set. The source made the active and inactive calls.

Each compound was assayed on intestinal alkaline phosphatase [Mus musculus] (assay: activators of mouse IAP, primary screen, biochemical, luminescence, uHTS (AID 2805)). Details: muIAP, CDP-Star luminescence, 30 min; at 10 µM; hits give high values; 1 = vehicle-only enzyme signal, 0 = enzyme-free wells.
Method in brief: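 System: mouse IAP enzyme. Reagent: CDP-Star chemiluminescent phosphatase substrate. Benchmarks: DMSO wells, no-enzyme wells. Times: 30 min enzyme-substrate-compound incubation at room temperature. Detection: luminescence from enzymatic CDP-Star hydrolysis. Doses: test compounds delivered from DMSO solution.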
For `CCC(=O)N(c1ccccc1)C1(COC)CCN(CCc2cccs2)CC1`, the activation factor was inactive: 1.2.
With `CCC(=O)N(c1ccccc1)C1(COC)CCN(CCn2nnn(CC)c2=O)CC1` the activation factor was inactive: 1.1.
